These results are taken from PubChem BioAssay AID588850 (Sanford-Burnham Center for Chemical Genomics, 2011).

Molecules are shown by their SMILES. The entries are a selection whose mix differs from that of the whole data set. Active and inactive are the calls of the source.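 Rule for the calls: active = at least 50% inhibition at 5 µM, scaled per plate between neutral and stimulator controls; inactive = the rest.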

The nature of the assay: NF-kB reporter blockers in CF airway cells – cell-based, GFP fluorescence, uHTS, primary screen (AID 588850).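 Note: PAF is a Pseudomonas aeruginosa culture filtrate used as stimulus; plate controls were PAF-stimulated DMSO wells for no effect and unstimulated DMSO wells for full effect.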 As to conditions: KKLEB NF-kB-GFP reporter, PAF-induced, GFP fluorescence overnight; at 5 µM; hits give high values.
For the compound `CCC(=O)N(c1ccccc1)C1(COC)CCN(CCc2cccs2)CC1`, the inhibition was inactive: -18.4%.
Turning to `CCC(=O)N(c1ccccc1)C1(COC)CCN(CCn2nnn(CC)c2=O)CC1`, the inhibition is inactive: -6.9%.
